Assay results reported in ChEMBL document CHEMBL5505978, “Novel estrogen receptor β/histone deacetylase dual-targeted near-infrared fluorescent probes as theranostic agents for imaging and treatment of prostate cancer” (Eur J Med Chem, 2024).

Chains of the proteins cited; added tags and fusions are not shown.
UniProt Q92731, whole entry: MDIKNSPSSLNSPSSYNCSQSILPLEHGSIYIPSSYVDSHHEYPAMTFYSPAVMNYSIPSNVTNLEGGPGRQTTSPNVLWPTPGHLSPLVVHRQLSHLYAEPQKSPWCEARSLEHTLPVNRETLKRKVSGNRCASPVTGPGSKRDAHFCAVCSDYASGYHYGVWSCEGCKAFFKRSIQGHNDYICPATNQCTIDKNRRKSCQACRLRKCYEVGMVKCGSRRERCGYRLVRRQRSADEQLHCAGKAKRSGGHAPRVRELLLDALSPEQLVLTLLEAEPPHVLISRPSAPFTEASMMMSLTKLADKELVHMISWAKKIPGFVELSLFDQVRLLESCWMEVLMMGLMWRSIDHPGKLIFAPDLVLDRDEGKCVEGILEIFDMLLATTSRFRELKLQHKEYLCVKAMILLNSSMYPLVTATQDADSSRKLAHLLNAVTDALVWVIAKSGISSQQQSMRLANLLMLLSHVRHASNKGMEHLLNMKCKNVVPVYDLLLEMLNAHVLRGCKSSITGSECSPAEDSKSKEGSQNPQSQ

Columns and labels:
[1] = molecular target: Estrogen receptor beta (Homo sapiens) (UniProt Q92731); assay: Binding affinity to ERbeta (unknown origin) assessed as relative binding affinity incubated for 2 hrs under dark condition by fluorescence polarization assay relative to control
[2] = Selectivity ratio of relative binding affinity for ERbeta (unknown origin) to relative binding affinity to ERalpha (unknown origin)

RBA [1]	Selectivity ratio [2]	Structure (SMILES)
1.61%	1.17	N#CC(C#N)=C1C=C(/C=C/c2ccc(O)cc2)Oc2ccc(O)cc21
0.444%	34	N#CC(C#N)=C1C=C(/C=C/c2ccc(O)c(NC(=O)CCCCCCC(=O)NO)c2)Oc2ccc(O)cc21

Structure (SMILES)	RBA [1]	Selectivity ratio [2]
N#CC(C#N)=C1C=C(/C=C/c2ccc(O)c(NC(=O)CCCCCCC(=O)NO)c2)Oc2ccccc21		45
